## Binding of CDR-mutated scFvs to a peptide of the spike HR2 region

Data: MIT Lincoln Laboratory AlphaSeq set, Engelhart et al. 2022, doi:10.1038/s41597-022-01779-4, as distributed in FLAb.

Binding partner: SARS-CoV-2 spike HR2 peptide, sequence PDVDLGDISGINAS.

Each scFv is VH, a 15-residue (Gly4Ser)3 linker, VL, as in the parent Ab-95, and differs from it in the CDRs of the light chain only.
VH: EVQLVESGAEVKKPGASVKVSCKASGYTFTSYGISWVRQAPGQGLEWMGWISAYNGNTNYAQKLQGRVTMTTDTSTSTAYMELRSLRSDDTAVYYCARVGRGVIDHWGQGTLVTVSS
VL: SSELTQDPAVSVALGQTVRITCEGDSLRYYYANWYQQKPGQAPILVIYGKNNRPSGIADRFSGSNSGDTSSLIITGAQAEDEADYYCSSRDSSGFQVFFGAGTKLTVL

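The parent was found by panning a naive human phage display library on the peptide. The library (AAYL52) carries one to three amino acid substitutions per variant, with no insertions or deletions. AlphaSeq pools MATa yeast showing the antibodies with MATalpha yeast showing the peptide. After mating in shaken culture at 30 °C for 16 h, diploids were selected and their barcode pairs sequenced. A regression on co-assayed BCL2-family reference pairs converts the normalised counts of each replicate to an apparent Kd. Mating was done three times.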

Positions count from residue 1 of the parent VL; A32K puts K in place of A. Scale: log10 of Kd in nM, estimated from mating counts; low values are strong binders. Replicates are averaged; those with no signal do not enter the mean. "ND" marks a missing value. The strain was present, yet no cells mated with the target were sequenced in that replicate, which points to weak or no binding. Empty control strains, which show no peptide, gave a signal in 28% of pairings with library AAYL52; the median was 3.91 and 95% of these signals were weaker than 2.90. No background was subtracted. Also given: how often the same scFv was detected with the empty control strains, with their mean in brackets. Parent in this assay: reference entry 2.31, copy in this library 2.25.

changes | replicates, log10 nM | mean log10 Kd (nM) | control signals
A32K+K50Q+D91P | ND / ND / ND | ND | 3 of 9 (4.22)
N52F+S55D+Q96A | 3.15 / 2.47 / 2.88 | 2.83 | 1 of 9 (3.33)
D25S+S88M+R90L | 5.60 / ND / ND | 5.60 | 2 of 9 (4.34)
L27S+K50N+F98G | 2.83 / ND / ND | 2.83 | 0 of 9
G49D+S55Y+S92R | 2.28 / 2.39 / 2.18 | 2.28 | 2 of 9 (4.60)
E23R+A32F | 2.89 / 3.04 / 3.00 | 2.98 | 1 of 9 (4.61)
R28M+K50V+S88E | 3.72 / 3.70 / 3.91 | 3.78 | 4 of 9 (4.43)
R28L+Y29N+Q96S | 2.37 / 2.49 / 1.94 | 2.27 | 3 of 9 (3.97)
D25I+K50C+S93D | ND / ND / ND | ND | 0 of 9
E23C+Y31I+G49R | 4.08 / ND / ND | 4.08 | 4 of 9 (4.25)
E23N+Q96F | 3.63 / 2.92 / 2.75 | 3.10 | 3 of 9 (4.59)
E23S+N33A+N52D | 3.06 / ND / 2.91 | 2.99 | 5 of 9 (3.64)
D25E+N52R+S55I | 3.19 / 3.40 / 2.89 | 3.16 | 3 of 9 (3.25)
S55P+F95T | 2.30 / 2.72 / 3.13 | 2.72 | 6 of 9 (4.01)
R53N+R90P+S93P | 4.26 / 4.47 / 3.99 | 4.24 | 3 of 9 (4.60)
K50P+Q96T+F98H | 2.41 / 2.56 / 1.92 | 2.30 | 3 of 9 (3.32)
Y29L+N52G+F95A | 2.92 / 3.23 / 2.98 | 3.04 | 2 of 9 (4.05)
Y29R+N52E+P54R | 2.50 / 2.46 / 2.76 | 2.57 | 1 of 9 (3.38)
L27P+S89I+V97S | 3.91 / 3.71 / 3.29 | 3.64 | 3 of 9 (3.84)
G24N+Y29I+S93E | 4.19 / ND / 4.28 | 4.23 | 3 of 9 (3.73)
Y29W+K50Q+Q96P | 2.74 / 2.41 / 3.06 | 2.74 | 3 of 9 (3.17)
G24K+L27C+Y30G | 3.05 / 3.20 / 2.43 | 2.89 | 4 of 9 (4.00)
Y31C+N33M+F95V | 4.17 / ND / 4.30 | 4.23 | 3 of 9 (3.81)
S26M+S55I+Q96I | ND / 5.72 / ND | 5.72 | 1 of 9 (4.58)
S55K+V97R+F98Q | 5.24 / 3.07 / 3.42 | 3.91 | 2 of 9 (3.26)
S26P+R28V+K50T | 3.38 / 6.00 / ND | 4.69 | 3 of 9 (4.21)
D25H+Y30K+N51R | ND / 4.10 / 2.46 | 3.28 | 1 of 9 (3.36)
L27R+R90T+D91H | ND / 4.46 / 4.59 | 4.53 | 4 of 9 (3.81)
Y29I+S93Y | ND / ND / ND | ND | 0 of 9
Y29S+G94F+Q96F | 4.12 / ND / ND | 4.12 | 1 of 9 (4.16)
A32D+R53L+Q96G | 3.51 / 4.36 / ND | 3.94 | 6 of 9 (3.54)
G49V+S88F+V97S | ND / 4.75 / ND | 4.75 | 1 of 9 (2.50)
G24R+Y29D | 3.08 / 3.92 / 2.90 | 3.30 | 3 of 9 (4.04)
K50I+N52L+F95A | 2.86 / 3.54 / 4.37 | 3.59 | 2 of 9 (3.72)
E23N+S93E+F98K | 2.25 / 1.90 / 1.29 | 1.81 | 1 of 9 (2.41)
Y31H+N33S+P54L | 3.36 / 3.20 / 2.81 | 3.12 | 3 of 9 (4.28)

The last 6 entries again:

{"changes": "A32D+R53L+Q96G", "replicates, log10 nM": "3.51 / 4.36 / ND", "mean log10 Kd (nM)": "3.94", "control signals": "6 of 9 (3.54)"}
{"changes": "G49V+S88F+V97S", "replicates, log10 nM": "ND / 4.75 / ND", "mean log10 Kd (nM)": "4.75", "control signals": "1 of 9 (2.50)"}
{"changes": "G24R+Y29D", "replicates, log10 nM": "3.08 / 3.92 / 2.90", "mean log10 Kd (nM)": "3.30", "control signals": "3 of 9 (4.04)"}
{"changes": "K50I+N52L+F95A", "replicates, log10 nM": "2.86 / 3.54 / 4.37", "mean log10 Kd (nM)": "3.59", "control signals": "2 of 9 (3.72)"}
{"changes": "E23N+S93E+F98K", "replicates, log10 nM": "2.25 / 1.90 / 1.29", "mean log10 Kd (nM)": "1.81", "control signals": "1 of 9 (2.41)"}
{"changes": "Y31H+N33S+P54L", "replicates, log10 nM": "3.36 / 3.20 / 2.81", "mean log10 Kd (nM)": "3.12", "control signals": "3 of 9 (4.28)"}